Test results from paper PMC8666702 (Hypertension (Dallas, Tex. : 1979), 2021).

Assays:
[1] = tested on: essential hypertensive subjects; format: in vivo, human
How it was run: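 Hypertensive adults had antihypertensives withdrawn for 2 weeks, then received one SQ injection at 1, 2.5 or 5 ug/kg, in cohorts of 4 dosed in ascending order. They stayed at least 24 h as inpatients. Adverse events (coded by MedDRA term), vital signs, clinical labs and ECG were listed per subject and summarised by dose. MTD was defined as SBP fall ≥30 mmHg, and escalation stopped if 2 subjects in a cohort reached it.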

neprilysin (NEP) = details: cited from earlier work
[2] = Urinary sodium excretion after SQ MANP; format: in vivo; details: human, first 4 hours after SQ administration, 1, 2.5, 5 ug/kg
[3] = Plasma aldosterone after SQ MANP; format: in vivo, human; details: mean (SEM), n=4
[4] = tested on: particulate guanylyl cyclase A receptor (GC-A); test: Plasma cGMP after SQ MANP; format: in vivo; details: human, 1, 2.5, 5 ug/kg single SQ, all subjects and timepoints
[5] = tested on: essential hypertensive subjects; test: Sitting blood pressure and heart rate after SQ MANP; format: in vivo, human
normal canines = details: IV, cited from earlier work
hypertensive rodents = details: daily for 7 days by SQ injection; cited from earlier work
[6] = tested on: insulin degrading enzyme (IDE); details: cited from earlier work
clinical = details: human, in vivo, sc
[7] = Pharmacokinetics of plasma MANP
[8] = all doses pooled, single SQ, N=12

CC[C@H](C)[C@@H]1NC(=O)[C@H](CCCNC(=N)N)NC(=O)[C@H](CC(=O)O)NC(=O)[C@H](CCSC)NC(=O)[C@H](CCCNC(=N)N)NC(=O)CNC(=O)CNC(=O)[C@H](Cc2ccccc2)NC(=O)[C@@H](NC(=O)[C@H](CO)NC(=O)[C@H](CO)NC(=O)[C@H](CCCNC(=N)N)NC(=O)[C@H](CCCNC(=N)N)NC(=O)[C@H](CC(C)C)NC(=O)[C@@H](N)CO)CSSC[C@@H](C(=O)N[C@@H](CC(N)=O)C(=O)N[C@@H](CO)C(=O)N[C@@H](Cc2ccccc2)C(=O)N[C@@H](CCCNC(=N)N)C(=O)N[C@@H](Cc2ccc(O)cc2)C(=O)N[C@@H](CCCNC(=N)N)C(=O)N[C@H](C(=O)N[C@H](C(=O)N[C@@H](C)C(=O)N[C@@H](CCCNC(=N)N)C(=O)N[C@@H](CCC(=O)O)C(=O)N[C@@H](CC(=O)O)C(=O)N[C@@H](CCCCN)C(=O)N[C@@H](CCC(N)=O)C(=O)NCC(=O)N[C@@H](Cc2c[nH]c3ccccc23)C(=O)N[C@@H](C)C(=O)O)[C@@H](C)O)[C@@H](C)CC)NC(=O)CNC(=O)[C@H](CC(C)C)NC(=O)CNC(=O)[C@H](CO)NC(=O)[C@H](CCC(N)=O)NC(=O)[C@H](C)NC(=O)CNC1=O [MANP]
Subjects with SBP reduction ≥30 mmHg ([1]; 5 μg/kg cohort, n=4, single SQ): 2 subjects
Plasma creatinine at 24 hours after dosing compared to pre-dose ([1]; 5 μg/kg, data not shown): trended to be lower
Arrhythmia [1, 8]: 0 (0%) n (%)
Dyspnea [1, 8]: 0 (0%) n (%)
Gastrointestinal Symptoms [1, 8]: 0 (0%) n (%)
Light Headedness [1, 8]: 1 (8%) n (%)
Orthostatic Vasovagal Syncope [1, 8]: 1 (8%) n (%)
Paresthesia [1, 8]: 0 (0%) n (%)
Second- or third-degree AV block [1, 8]: 0 (0%) n (%)
Tachycardia [1, 8]: 0 (0%) n (%)
Ventricular fibrillation or asystole [1, 8]: 0 (0%) n (%)
Ventricular tachycardia > 5 beats [1, 8]: 0 (0%) n (%)
Serious AEs ([1]; all doses, N=12): no serious AEs
Changes in laboratory values or ECG from baseline ([1]; all subjects, N=12): No significant changes
ECG changes during the 24 hours of observation ([1]; all subjects, N=12): no ECG changes
Local reactions at the injection sites ([1]; all subjects, N=12, SQ): no local reactions at the injection sites
Maximal tolerated dose (defined as SBP reduction ≥30 mmHg) ([1]; human, single SQ, 2 of four subjects with SBP reduction greater than 30 mmHg): 5 µg/kg
Enzymatic degradation by NEP (neprilysin (NEP)): highly resistant to enzymatic degradation
Urinary sodium excretion [2]: dose dependent increase
Plasma aldosterone ([3]; 1 ug/kg SQ, 1 Hr post dose, predose 7.18 (1.90)): 5.80 (0.54) ng/dL
Plasma aldosterone ([3]; 1 ug/kg SQ, 3 Hr post dose, predose 7.18 (1.90)): 7.98 (1.69) ng/dL
Plasma aldosterone ([3]; 1 ug/kg SQ, 12 Hr post dose, predose 7.18 (1.90)): 5.55 (1.22) ng/dL
Plasma aldosterone ([3]; 1 ug/kg SQ, 24 Hr post dose, predose 7.18 (1.90)): 7.40 (1.59) ng/dL
Plasma aldosterone ([3]; 1 ug/kg SQ, 15min post dose, predose 7.18 (1.90)): 2.19 (0.58) ng/dL
Plasma aldosterone ([3]; 1 ug/kg SQ, 30 min post dose, predose 7.18 (1.90)): 1.23 (0.46) ng/dL
Plasma aldosterone ([3]; 2.5 ug/kg SQ, 1 Hr post dose, predose 8.70 (3.83)): 4.85 (0.48) ng/dL
Plasma aldosterone ([3]; 2.5 ug/kg SQ, 3 Hr post dose, predose 8.70 (3.83)): 4.00 (0.40) ng/dL
Plasma aldosterone ([3]; 2.5 ug/kg SQ, 12 Hr post dose, predose 8.70 (3.83)): 3.63 (0.39) ng/dL
Plasma aldosterone ([3]; 2.5 ug/kg SQ, 24 Hr post dose, predose 8.70 (3.83)): 5.48 (0.39) ng/dL
Plasma aldosterone ([3]; 2.5 ug/kg SQ, 15min post dose, predose 8.70 (3.83)): 2.45 (2.13) ng/dL
Plasma aldosterone ([3]; 2.5 ug/kg SQ, 30 min post dose, predose 8.70 (3.83)): 3.01 (2.19) ng/dL
Plasma aldosterone ([3]; 5 ug/kg SQ, 1 Hr post dose, predose 7.23 (2.74)): 4.30 (0.81) ng/dL
Plasma aldosterone ([3]; 5 ug/kg SQ, 3 Hr post dose, predose 7.23 (2.74)): 8.35 (3.32) ng/dL
Plasma aldosterone ([3]; 5 ug/kg SQ, 12 Hr post dose, predose 7.23 (2.74)): 4.40 (1.36) ng/dL
Plasma aldosterone ([3]; 5 ug/kg SQ, 24 Hr post dose, predose 7.23 (2.74)): 6.85 (1.84) ng/dL
Plasma aldosterone ([3]; 5 ug/kg SQ, 15min post dose, predose 7.23 (2.74)): 1.61 (1.06) ng/dL
Plasma aldosterone ([3]; 5 ug/kg SQ, 30 min post dose, predose 7.23 (2.74)): 1.98 (1.02) ng/dL
Plasma cGMP CMax and AUClast, dose relation [4]: clear dose response with increasing CMax and AUClast
DBP at 24 hours after dosing ([5]; 5 μg/kg cohort): lower
SBP at 24 hours after dosing ([5]; 2.5 and 5 μg/kg cohorts): remained lower than baseline
Heart rate compared to baseline ([5]; dose dependent, most prominent from 4 to 24 hours post SQ injection in the 5 ug/kg cohort): trended to increase
Reduction of SBP ([5]; human, all doses (1 to 5 ug/kg single SQ), no clear dose response): approximately 15 mmHg
Aldosterone suppressing action compared to native ANP (normal canines; markedly greater and more sustained): p<0.01 for 150 minutes post infusion
Natriuretic action compared to native ANP (normal canines; p<0.001): greater doubling of natriuresis during infusions
Glomerular filtration enhancing action compared to native ANP (normal canines; p<0.05): more sustained increase in GFR post infusions
BP lowering compared to native ANP (normal canines; p<0.05 greater reduction sustained over 150 minutes post infusion): markedly greater and more sustained BP lowering
cGMP and BP effect (hypertensive rodents): cGMP activation and sustained BP lowering
Enzymatic degradation by IDE [6]: highly resistant to enzymatic degradation
half-life (clinical; 1 ug/kg): 54 min
half-life (clinical; 2.5 ug/kg): 75 min
half-life (clinical; 5 ug/kg): 55 min
CMax and AUClast of MANP in plasma, dose relation ([7]; human, 1, 2.5, 5 ug/kg single SQ, AUC from zero to 24 h): highest CMax and AUClast occurred with the highest dose of 5 μg/kg
Tmax ([7]; human, plasma, sc): 30 min
